Earlier results, collected in patent publication US10590413B2, “Chiral control” (WAVE LIFE SCIENCES LTD., priority 2012, dated 2020).

Tested on: NK activity
Details: cited from earlier work

IL-2
LU/10^6, Human Cells (Expt. 1, human cells, None = 0.00): 15.82 LU/10^6 | LU/10^6, Mouse Cells (Expt. 1, mouse cells, None = 0.00): 16.68 LU/10^6 | NK activity LU/10^5 Human Cells (human cells, Table 3 of U.S. Pat. No. 6,214,806): 15.82 LU/10^5 | NK activity LU/10^6 Human cells (human cells, Table 9 of U.S. Pat. No. 6,207,646): 15.82 LU/10^6 | NK activity LU/10^5 Mouse Cells (mouse cells, Table 3 of U.S. Pat. No. 6,214,806): 16.68 LU/10^5 | NK activity LU/10^6 Mouse Cells (mouse cells, Table 9 of U.S. Pat. No. 6,207,646): 16.68 LU/10^6
